Laboratory results as given in patent publication US6913892B1, “Method of obtaining compositions comprising Y4 specific compounds” (H. Lundbeck A/S, priority 1993, dated 2005).
Read-outs that look alike come from different tables or passages of the source.

Amino acid sequences for entries named in this document (tags omitted). A change or cut given only in a name is not applied to a line headed by its entry.
UniProt P50391: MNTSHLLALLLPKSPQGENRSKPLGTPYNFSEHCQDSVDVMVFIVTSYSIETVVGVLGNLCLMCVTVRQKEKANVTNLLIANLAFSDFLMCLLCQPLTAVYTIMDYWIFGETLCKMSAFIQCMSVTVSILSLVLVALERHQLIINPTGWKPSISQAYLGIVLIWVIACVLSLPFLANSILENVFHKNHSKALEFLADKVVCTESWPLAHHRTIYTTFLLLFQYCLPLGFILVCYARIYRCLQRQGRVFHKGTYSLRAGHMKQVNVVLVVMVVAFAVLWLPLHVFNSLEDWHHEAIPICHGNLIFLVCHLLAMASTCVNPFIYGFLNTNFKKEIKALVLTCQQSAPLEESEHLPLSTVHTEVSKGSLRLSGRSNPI
UniProt Q63447: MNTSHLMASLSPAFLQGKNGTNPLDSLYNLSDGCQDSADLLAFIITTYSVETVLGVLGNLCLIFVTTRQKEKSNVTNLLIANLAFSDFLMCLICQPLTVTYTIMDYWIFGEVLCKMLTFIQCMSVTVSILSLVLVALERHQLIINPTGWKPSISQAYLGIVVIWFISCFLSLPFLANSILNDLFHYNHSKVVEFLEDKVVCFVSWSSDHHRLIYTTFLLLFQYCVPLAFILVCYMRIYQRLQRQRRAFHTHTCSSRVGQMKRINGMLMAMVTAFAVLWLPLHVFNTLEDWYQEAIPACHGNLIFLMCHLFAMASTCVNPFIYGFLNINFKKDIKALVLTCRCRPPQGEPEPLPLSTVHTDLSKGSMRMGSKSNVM
UniProt P49146, whole entry: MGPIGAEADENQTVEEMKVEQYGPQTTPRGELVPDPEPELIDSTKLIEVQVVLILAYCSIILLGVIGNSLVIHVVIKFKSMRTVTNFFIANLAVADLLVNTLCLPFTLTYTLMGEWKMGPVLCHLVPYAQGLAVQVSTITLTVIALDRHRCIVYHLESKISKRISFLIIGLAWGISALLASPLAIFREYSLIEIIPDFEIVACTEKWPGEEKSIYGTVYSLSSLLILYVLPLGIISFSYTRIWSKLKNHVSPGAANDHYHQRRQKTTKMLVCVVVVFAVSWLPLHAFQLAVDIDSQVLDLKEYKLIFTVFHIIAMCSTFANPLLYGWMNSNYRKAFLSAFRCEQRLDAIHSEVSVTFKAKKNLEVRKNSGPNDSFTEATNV
UniProt P25929, whole entry: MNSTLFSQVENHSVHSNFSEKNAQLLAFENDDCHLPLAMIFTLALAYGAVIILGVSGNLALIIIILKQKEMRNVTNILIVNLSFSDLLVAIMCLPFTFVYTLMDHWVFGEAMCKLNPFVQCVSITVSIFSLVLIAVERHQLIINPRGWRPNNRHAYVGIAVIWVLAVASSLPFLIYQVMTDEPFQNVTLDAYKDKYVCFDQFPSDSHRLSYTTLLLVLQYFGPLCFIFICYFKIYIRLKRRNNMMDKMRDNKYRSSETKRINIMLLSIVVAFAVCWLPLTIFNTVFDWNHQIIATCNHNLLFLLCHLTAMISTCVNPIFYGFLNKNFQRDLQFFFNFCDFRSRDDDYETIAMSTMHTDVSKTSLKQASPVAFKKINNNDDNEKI

Legend:
[1] = biological target: T1, human hp25a (Y4) receptor (Homo sapiens, UniProt P50391); assay: Competitive displacement / binding of 125I-PYY, membranes of COS-7 cells transiently expressing hp25a (human Y4) receptors; conditions: for Ki: read-out: Y4 (Ki), Table 3, cloned human Y4 in COS-7, displacement of 125I-PYY
T1 construct: The entire coding region of hp25a (1127 bp); expressed in transfected cells; host or cells: COS-7

rat Y4 receptor = biological target: T2, rat Y4 receptor (Rattus norvegicus, UniProt Q63447); assay: Binding of 125I-PYY and competitive displacement, membranes of COS-7 cells transiently expressing rat Y4 receptors
T2 construct: expressed in transfected cells; host or cells: COS-7

human Y4 receptor = biological target: T3, human Y4 receptor (Homo sapiens, UniProt P50391); assay: Saturation binding of 125I-PYY to membranes from the NIH-3T3 stable clone expressing human Y4; conditions: read-out: apparent Ki (saturation binding, one-site model)
T3 construct: expressed in transfected cells

human Y2 receptor = biological target: T4, human Y2 receptor (Homo sapiens, UniProt P49146); assay: Competitive displacement of 125I-PYY, membranes of COS-7 cells transiently expressing human Y2 receptors; format: binding; conditions: read-out: Y2 (Ki); Table 3; cloned human Y2 in COS-7, displacement of 125I-PYY
T4 construct: expressed in transfected cells; host or cells: COS-7

Y1 receptor = Y1 receptor (Homo sapiens, UniProt P25929); assay: Competitive displacement / binding of 125I-PYY, membranes of COS-7 cells transiently expressing human Y1 receptors; design: expressed in transfected cells; host or cells: COS-7; conditions: read-out: Y1 (Ki); Table 3; cloned human Y1 in COS-7, displacement of 125I-PYY

^125I-PYY showed a Kd ([1]; hp25a in COS-7, n=4, read-out: apparent Kd (saturation binding, one-site model)) of 0.11 ± 0.01 nM, a Kd (rat Y4 receptor; rat Y4 in COS-7, radioligand 0.5 pM to […]; read-out: apparent Kd (saturation binding, one-site model)) of 0.15 nM and a Ki (human Y4 receptor) of 0.17 nM.
With Phe-Leu-Arg-Phe-amide the Ki [1] was 750 nM, the Ki (human Y2 receptor) was over 100000 nM and the Ki (Y1 receptor) was 15000 nM.
Neuropeptide Y [NPY, human] was tested, and the Ki (rat Y4 receptor; Table 6; COS-7 membranes, displacement of 125I-PYY; read-out: Rat Y4 (Ki)) was 1.7 nM.
Phe-Met-Arg-Phe-Amide showed a Ki [1] of 4000 nM, a Ki (human Y2 receptor) of 75000 nM and a Ki (Y1 receptor) of 12000 nM.
Neuropeptide Y [NPY, porcine] was tested, and the Ki (rat Y4 receptor; read-out: Rat Y4 (Ki); Table 6; COS-7 membranes, displacement of 125I-PYY) was 1.8 nM.
